The source of these data is PubChem BioAssay AID1625 (Sanford-Burnham Center for Chemical Genomics, 2009).

Values joined by “and” are separate entries in the source; they are usually repeats but may differ in a detail not shown here. Equal entries are not always repeated. This is a selection; strong and weak results do not stand in their true shares. Active and inactive are the calls of the source.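 Rule for the calls: active = z-score above 3 at 5 µM with at least 500 cells counted in the well; inconclusive = wells under 500 cells, flagged as cytotoxic or low count; inactive = the rest.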

The experiment can be described thus: up-regulation of insulin promoter-GFP reporter – imaging, high-content screening, mouse beta cells (AID 1625). As to conditions: MIN6 insulin promoter-GFP reporter, at 5 µM, hits give high values.
On to `Nc1ccc([As](=O)(O)c2ccc(N)cc2)cc1`, for which the z-score was inactive: -0.15. The same measure for `CCc1ccc(OP(C)(=O)Nc2cccnc2)cc1` (stereo unspecified): inactive: 0.1; for `CCc1nc2c(n1)c1c(non1O)c1c2no[n+]1[O-]`: inactive: -0.23; for `CP(=O)(Oc1ccccc1)N1CCOC1=O` (stereo unspecified): inactive: 0.68.

Consider `Cc1ccc(NP(=O)(Oc2ccccc2)Oc2ccccc2)nc1`, for which the z-score was inactive: -0.03. The same measure for `O=C(OCCCN1CCCC1)C(O)(c1ccccc1)C1CCCCC1` (stereo unspecified): inactive: 0.48; for `COc1ccccc1OP(C)(=O)Nc1c(C)n(C)n(-c2ccccc2)c1=O` (stereo unspecified): inactive: 0.33. On to `COc1ccc(OP(C)(=O)Nc2ccc(Br)cc2)cc1` (stereo unspecified), for which the z-score was inactive: 0.07. Take `COc1ccc(C2=NCC(CBr)S2)cc1` (stereo unspecified): the z-score is inactive: 0.22. The same measure for `CCN(CC)CC(O)COC(=O)C(O)(c1ccccc1)C1CCCCC1` (stereo unspecified): inactive: -0.04; for `O=C(O)CNc1ccc([As](=O)(O)O)cc1`: inactive: -0.21; for `O=[N+]([O-])c1cccc(NC2=NCC(CBr)S2)c1` (stereo unspecified): inactive: -0.22. The same measure for `O=[N+]([O-])c1ncn(CCn2ncnc2[N+](=O)[O-])n1`: inactive: 1.07. Take `CC(C)(C)C(=O)NC(Sc1ccncn1)C(Cl)(Cl)Cl` (stereo unspecified): the z-score is inactive: 0.68. The same measure for `CP(=O)(OC12CC3CC(CC(C3)C1)C2)OC12CC3CC(CC(C3)C1)C2`: inactive: 0.39; for `O=C(Nc1cc([As](=O)(O)O)ccc1O)c1ccccc1`: inactive: 0.2. For `CP(=O)(Nc1ccc(Cl)cc1Cl)Oc1ccccc1` (stereo unspecified), the z-score was inactive: 0.02. Regarding `CP(=O)(OCCOc1ccccc1)OCCOc1ccccc1`, the z-score is inactive: 0.11.

Take `Nc1cccc2ccc([As](=O)(O)O)cc12`: the z-score was inactive: -1.47. The same measure for `CCN(N=Nc1nonc1N)c1nonc1N`: inactive: 0.06; for `Cc1nc2ccc3ccccc3c2o1.O=[N+]([O-])c1cc([N+](=O)[O-])c(O)c([N+](=O)[O-])c1`: inactive: 1.56. Turning to `COc1ccc(OP(C)(=O)Nc2ccccc2Br)cc1` (stereo unspecified), the z-score was inactive: -0.42. Take `COc1ccccc1OP(C)(=O)Nc1ccc(C)c(C)c1` (stereo unspecified): the z-score was inactive: 0.84. The same measure for `Cc1ccc(NP(=O)(Oc2ccccc2F)Oc2ccccc2F)nc1`: inactive: 0.46; for `Cc1cc(SC(NC(=O)c2ccc(F)cc2)C(Cl)(Cl)Cl)ncn1` (stereo unspecified): inactive: -0.56. The same measure for `CCOP(=O)(Nc1ccccc1)OCC`: inactive: -0.31 and inactive: 0.07. The same measure for `O=P(Nc1nc2ccc(Cl)cc2s1)(c1ccccc1)c1ccccc1`: inactive: -0.02. In the case of `Cc1cc(C)cc(OP(C)(=O)Nc2cccc(C(F)(F)F)c2)c1` (stereo unspecified), the z-score is inactive: -0.33. For the compound `CC(=O)Nc1ccc([As](=O)(O)O)cc1`, the z-score was inactive: -0.79. The same measure for `O=C(O)c1ccccc1[As](=O)(O)O`: inactive: 2.48. For the compound `CCc1ccc(OP(C)(=O)O)cc1`, the z-score was inactive: 0.84. With `COc1ccccc1OP(C)(=O)Nc1ccc(C)cc1C` (stereo unspecified), the z-score was inactive: 0.85.

For `CP(=O)(Nc1ccccn1)Oc1ccccc1` (stereo unspecified), the z-score was inactive: 1.29. The same measure for `Cc1c2non([O-])c-2c(C)[n+](=O)[n+]1[O-]`: inactive: 0.15. The same measure for `Oc1ccccc1CNc1ccccn1`: inactive: 1.03; for `Cc1c(NP(C)(=O)Oc2ccc(C(C)C)cc2)c(=O)n(-c2ccccc2)n1C` (stereo unspecified): inactive: 1.59; for `O=[N+]([O-])c1cc([N+](=O)[O-])c(Nc2ccccn2)c([N+](=O)[O-])c1`: inactive: -0.47.

As to `CN(C)CCOC(=O)C(O)(c1ccccc1)C1CCCC1` (stereo unspecified), the z-score is inactive: -0.27. The same measure for `Clc1ccc(Cl)c(NC2=NCC(CBr)S2)c1` (stereo unspecified): inactive: -0.2. Consider `Cc1ccc(OP(=O)(Nc2nccs2)Oc2ccc(C)cc2)cc1`, for which the z-score was inactive: -0.02.

Regarding `COc1ccccc1OP(=O)(Nc1ccc(C)cn1)Oc1ccccc1OC`, the z-score was inactive: 0.1. Take `COc1ccc(OP(C)(=O)Nc2ccccn2)cc1` (stereo unspecified): the z-score was inactive: 0.54.

In the case of `Cc1ccc(N/C(=N/P(=O)(N2CCOCC2)N2CCOCC2)N2CCOCC2)cc1`, the z-score was inactive: -0.33.

Take `COc1ccccc1OP(C)(=O)Nc1ccc(Br)cc1` (stereo unspecified): the z-score is inactive: 0.5.

With `NC(=O)c1cc([N+](=O)[O-])cc([N+](=O)[O-])c1N`, the z-score is inactive: -0.23. The same measure for `CC(=O)Nc1ccc(Oc2c([N+](=O)[O-])cc([N+](=O)[O-])cc2[N+](=O)[O-])cc1`: inactive: 0.12. For `CC(=O)Nc1ccc([As](=O)(O)O)c(O)c1`, the z-score was inactive: 0.28. Consider `C[C@H]1OP(=O)(Oc2ccccc2)C[C@@H]2O[C@@H]21` (stereo partly specified), for which the z-score was inactive: 0.65.

As for `C[C@@H]1C=CCP(=O)(Oc2ccccc2)O1` (stereo partly specified), the z-score was inactive: -0.09.

As for `O=C(OCCN1CCN(CCOCc2ccccc2)CC1)C(O)(c1ccccc1)c1ccccc1`, the z-score is inactive: 0.18. Consider `O=C(OC1CN2CCC1CC2)c1ccc([N+](=O)[O-])cc1` (stereo unspecified), for which the z-score is inactive: 0.9. The same measure for `CC(C)c1ccc(OP(C)(=O)Nc2ccc(SC(F)(F)F)cc2)cc1` (stereo unspecified): inactive: -0.28; for `CC(C)(C)C(=O)NC(Sc1ccccc1)C(Cl)(Cl)Cl` (stereo unspecified): inactive: -0.44; for `CP(=O)(Nc1ccccc1F)Oc1ccccc1` (stereo unspecified): inactive: 0.13. `CCOc1ccc(C2=NCC(CBr)S2)cc1` (stereo unspecified): the z-score was inactive: -0.43. As to `O=P1(Nc2nc3ccc(Cl)cc3s2)COc2ccccc2O1` (stereo unspecified), the z-score was inactive: 0.16. Regarding `CCCCCOc1ccc(NP(C)(=O)Oc2ccc(Cl)cc2Cl)cc1` (stereo unspecified), the z-score is inactive: -0.1. Turning to `CN(C)C(=O)Oc1noc2ccccc12`, the z-score is inactive: 0.17. The same measure for `Cc1ccccc1OP(=O)(Nc1ccccn1)Oc1ccccc1C`: inactive: -0.06. For `CP(=O)(Nc1ccccc1)Oc1ccc(F)cc1` (stereo unspecified), the z-score is inactive: 0.37. The same measure for `Cc1ccc(OP(=O)(Nc2ccccn2)Oc2ccc(C)cc2)cc1`: inactive: 0.2; for `CC(=O)NC(SC(=S)N(CC(C)C)CC(C)C)C(Cl)(Cl)Cl` (stereo unspecified): inactive: -0.43; for `COC(=O)c1cc2c(s1)N=C(c1ccccc1)N(C)P2(=O)N1CCOCC1` (stereo unspecified): inactive: -0.4. The same measure for `COc1ccc(OP(C)(=O)Nc2ccc(SC(F)(F)F)cc2)cc1` (stereo unspecified): inactive: -1.16; for `CCOC(=O)c1ccc(NP(C)(=O)Oc2ccc(F)cc2)cc1` (stereo unspecified): inactive: 0.35. Consider `CCOC(=O)NC(Sc1ccccc1)C(Cl)(Cl)Cl` (stereo unspecified), for which the z-score was inactive: -0.6. The same measure for `Cc1ccc(NP(=O)(Oc2cccc(C)c2)Oc2cccc(C)c2)nc1`: inactive: 0.15; for `c1ccc(-c2nn[nH]n2)c(-c2nn[nH]n2)c1`: inactive: -0.11. `O=C(NC1CCS(=O)(=O)C1)NP(=S)(Oc1ccccc1)Oc1ccccc1` (stereo unspecified): the z-score is inactive: -0.14. The same measure for `CCNC(=S)/N=C(\N)N[N+](=O)[O-]`: inactive: -0.59; for `O=C(OC1CN2CCC1CC2)c1cccc(Cl)c1` (stereo unspecified): inactive: -0.3. For the compound `C(Cc1nn[nH]n1)Cc1nn[nH]n1`, the z-score is inactive: 0.33. The same measure for `Nc1ccc([As](=O)(O)c2ccc([N+](=O)[O-])cc2)cc1`: inactive: 0.48; for `O=[N+]([O-])c1cc([N+](=O)[O-])c(NCC2CCS(=O)(=O)C2)c([N+](=O)[O-])c1` (stereo unspecified): inactive: 2.12; for `Cc1cc(-c2cccc3ccccc23)c(C)cn1.O=[N+]([O-])c1cc([N+](=O)[O-])c(O)c([N+](=O)[O-])c1`: inactive: 0.24. The same measure for `O=[As](O)(c1ccccc1)c1ccc(O)cc1`: inactive: 0. On to `O=[N+]([O-])c1ncn(CCn2cnc([N+](=O)[O-])n2)n1`, for which the z-score was inactive: -0.47. The same measure for `O=[N+]([O-])c1ccc(OP2(=O)COCCO2)cc1` (stereo unspecified): inactive: 0.05. `COc1ccc(NP(C)(=O)Oc2ccccc2OC)cc1` (stereo unspecified): the z-score was inactive: 0.27. The same measure for `C[C@H]1OP(=O)(Oc2ccccc2)[C@H](O)[C@H](O)[C@H]1N=[N+]=[N-]` (stereo partly specified): inactive: 0.41; for `O=P(Nc1nc2ccccc2s1)(c1ccccc1)c1ccccc1`: inactive: 0.45. Take `CN(C)CCOC(=O)C(O)(c1ccccc1)C1CCCCC1` (stereo unspecified): the z-score was inactive: -0.14.

Take `O=P(Nc1ccccn1)(c1ccc(Br)cc1)c1ccc(Br)cc1`: the z-score is inactive: 0.75. As to `COc1ccc(OP(C)(=O)Nc2cccc(Br)c2)cc1` (stereo unspecified), the z-score is inactive: -0.36. The same measure for `Cc1ccccc1NP(C)(=O)Nc1ccccc1C`: inactive: 0.48. The same measure for `CP(=O)(Nc1ccc2c(c1)OCCO2)Oc1ccccc1` (stereo unspecified): inactive: 0.39; for `c1nnnn1CCn1cnnn1`: inactive: -1.04; for `CCOP(C)(=S)SCC(=O)NC(C)(CC)C(=O)O` (stereo unspecified): inactive: 0.43. `O=P(Nc1nccs1)(c1ccccc1)c1ccccc1`: the z-score is inactive: 0.21. The same measure for `CC(C)C(=O)NC(Sc1ccccc1)C(Cl)(Cl)Cl` (stereo unspecified): inactive: -0.11; for `CP(=O)(Nc1ccc(SC(F)(F)F)cc1)Oc1ccc(F)cc1` (stereo unspecified): inactive: 0.02.
